Measurements as given in US6472373B1, “Combination therapy for eradicating detectable HCV-RNA in antiviral treatment naive patients having chronic hepatitis C infection” (priority 1997, dated 2002).

Assays:
Type in all cases: in vivo, patients
serum HCV-RNA [1] = assay: Studies 1 and 2 combined: virologic response by serum HCV-RNA/qPCR; conditions: for Sustained Virologic Response / Sustained Virologic Response by Baseline HCV-RNA Levels / Percent of Sustained Virologic Responders by Time to First No Detectable HCV-RNA Levels: Studies 1 & 2; for Sustained Virologic Response: HCV Genotype 1 and Baseline HCV-RNA ≦ 2 million copies/mL; for Loss of Detectable HCV-RNA at End of Treatment (EOT), percent patients responding / Sustained Virologic Response at EOFU / Sustained Virologic Response at End of Follow Up (EOFU): Studies 1 and 2 combined; for Sustained Virologic Response at End of Follow Up (EOFU): all patients
[2] = tested on: chronic hepatitis C (serum ALT); assay: ALT response: normalization of serum ALT, Studies 1 & 2
From the text: […] proportion of patients with normalization of ALT at Endpoint of treatment.

serum HCV-RNA [3] = assay: Study 2: virologic response by serum HCV-RNA/qPCR

For “INTRON A + Placebo: INTRON A (interferon alpha-2b, recombinant) 3 million IU SC TIW plus placebo matching ribavirin; interferon monotherapy comparator”, the “Sustained Virologic Response” value (serum HCV-RNA [1]; 24 weeks treatment) was 4%, the “Sustained Virologic Response” value (serum HCV-RNA [1]; 48 weeks treatment) was 25% and the “Sustained Virologic Response by Baseline HCV-RNA Levels” value (serum HCV-RNA [1]; all patients with Baseline HCV-RNA > 2 million copies/mL, 24 weeks treatment) was 4%. For the same substance, the “Sustained Virologic Response by Baseline HCV-RNA Levels” value (serum HCV-RNA [1]; all patients with Baseline HCV-RNA > 2 million copies/mL, 48 weeks treatment) was 10%, the “Sustained Virologic Response by Baseline HCV-RNA Levels” value (serum HCV-RNA [1]; all patients with Baseline HCV-RNA ≦ 2 million copies/mL, 24 weeks treatment) was 9% and the “Sustained Virologic Response by Baseline HCV-RNA Levels” value (serum HCV-RNA [1]; all patients with Baseline HCV-RNA ≦ 2 million copies/mL, 48 weeks treatment) was 36%. The “Percent of Sustained Virologic Responders by Time to First No Detectable HCV-RNA Levels” value (serum HCV-RNA [1]; first no-detectable HCV-RNA at Week 4, 24 weeks treatment) was 48% (10/21), the “Percent of Sustained Virologic Responders by Time to First No Detectable HCV-RNA Levels” value (serum HCV-RNA [1]; first no-detectable HCV-RNA at Week 4, 48 weeks treatment) was 71% (47/66) and the “Percent of Sustained Virologic Responders by Time to First No Detectable HCV-RNA Levels” value (serum HCV-RNA [1]; first no-detectable HCV-RNA at Week 12, 24 weeks treatment) was 9% (3/32). For the same substance, the “Percent of Sustained Virologic Responders by Time to First No Detectable HCV-RNA Levels” value (serum HCV-RNA [1]; first no-detectable HCV-RNA at Week 12, 48 weeks treatment) was 35% (29/84), the “Percent of Sustained Virologic Responders by Time to First No Detectable HCV-RNA Levels” value (serum HCV-RNA [1]; first no-detectable HCV-RNA at Week 24, 24 weeks treatment) was 0% (0/22) and the “Percent of Sustained Virologic Responders by Time to First No Detectable HCV-RNA Levels” value (serum HCV-RNA [1]; first no-detectable HCV-RNA at Week 24, 48 weeks treatment) was 15% (6/39). For the same substance, the “Sustained response rates in patients older than 55 years, >75 kg or infected through transfusion” value (serum HCV-RNA [1]; Studies 1+2, 48 weeks treatment) was 10-12%, the “Loss of Detectable HCV-RNA at End of Treatment (EOT), percent patients responding” value (serum HCV-RNA [1]; 24 weeks treatment) was 29% and the “Loss of Detectable HCV-RNA at End of Treatment (EOT), percent patients responding” value (serum HCV-RNA [1]; 48 weeks treatment) was 24%. For the same substance, the “Sustained Virologic Response at EOFU” value (serum HCV-RNA [1]; HCV Genotype 2, 24 weeks treatment) was 18%, the “Sustained Virologic Response at EOFU” value (serum HCV-RNA [1]; HCV Genotype 2, 48 weeks treatment) was 35% and the “Sustained Virologic Response at EOFU” value (serum HCV-RNA [1]; HCV Genotype 3, 24 weeks treatment) was 8%. The “Sustained Virologic Response at EOFU” value (serum HCV-RNA [1]; HCV Genotype 3, 48 weeks treatment) was 29%, the “Sustained Virologic Response at EOFU” value (serum HCV-RNA [1]; HCV Genotypes 4/5/6, 24 weeks treatment) was 0% and the “Sustained Virologic Response at EOFU” value (serum HCV-RNA [1]; HCV Genotypes 4/5/6, 48 weeks treatment) was 11%. The “Sustained Virologic Response at EOFU” value (serum HCV-RNA [1]; all HCV Genotype 1, 24 weeks treatment) was 2%, the “Sustained Virologic Response at EOFU” value (serum HCV-RNA [1]; all HCV Genotype 1, 48 weeks treatment) was 9% and the “Sustained Virologic Response at End of Follow Up (EOFU)” value (serum HCV-RNA [1]; 24 weeks treatment) was 6%. For the same substance, the “Sustained Virologic Response at End of Follow Up (EOFU)” value (serum HCV-RNA [1]; 48 weeks treatment) was 16%, the “Normalization of Serum ALT At End of Treatment” value (“Normalization … of Treatment” for short) ([2]; Studies 1 & 2 combined, 24 weeks treatment) was 24% (56) and the “Normalization of Serum ALT at End of Follow-Up” value (from here on “Normalization … of Follow-Up”) ([2]; Studies 1 + 2 combined, 24 weeks treatment) was 11% (25). The “Normalization … of Follow-Up” value ([2]; Studies 1 + 2 combined, 48 weeks treatment) was 24% (102), the “Normalization … of Treatment” value ([2]; Study 1, 24 weeks treatment) was 24% (56) and the “Normalization … of Follow-Up” value ([2]; Study 1, 24 weeks treatment) was 11% (25). For the same substance, the “Normalization … of Treatment” value ([2]; Study 1, 48 weeks treatment) was 28% (82), the “Normalization … of Follow-Up” value ([2]; Study 1, 48 weeks treatment) was 16% (35) and the “Normalization … of Treatment” value ([2]; Study 2, 48 weeks treatment) was 44% (123). The “Normalization … of Follow-Up” value ([2]; Study 2, 48 weeks treatment) was 24% (67), the “Non Responders at EOFU” value (serum HCV-RNA [3]; 48 weeks treatment) was 66% (184) and the “Relapse at EOFU” value (serum HCV-RNA [3]; 48 weeks treatment) was 15% (41). For the same substance, the “Serum HCV-RNA Negative at EOT, proportion of patients” value (serum HCV-RNA [3]; 48 weeks treatment) was 33% (93), the “Serum HCV-RNA Positive at EOT, proportion of patients” value (serum HCV-RNA [3]; 48 weeks treatment) was 65% (185) and the “Sustained Virologic Response at EOFU” value (serum HCV-RNA [3]; 48 weeks treatment) was 19% (53). For the same substance, the “Sustained Virologic Response” value (serum HCV-RNA [3]; Genotype 1 & >2 million copies/mL, 48 weeks treatment) was 4% (5/122), the “Sustained Virologic Response” value (serum HCV-RNA [3]; Genotype 1 & ≦2 million copies/mL, 48 weeks treatment) was 30% (14/46) and the “Sustained Virologic Response Rates by HCV Genotype” value (shortened to “Sustained Virologic Response Rates”) (serum HCV-RNA [3]; Genotype 1, 48 weeks treatment) was 11% (19/168). The “Sustained Virologic Response Rates” value (serum HCV-RNA [3]; Genotype 2, 48 weeks treatment) was 35% (8/23), the “Sustained Virologic Response Rates” value (serum HCV-RNA [3]; Genotype 3, 48 weeks treatment) was 32% (25/79) and the “Sustained Virologic Response Rates” value (serum HCV-RNA [3]; Genotype 4-6, 48 weeks treatment) was 12% (1/8). For the same substance, the “Sustained Virologic Response” value (serum HCV-RNA [3]; HCV-RNA/qPCR >2 million copies/mL, 48 weeks treatment) was 13% (24/183), the “Sustained Virologic Response” value (serum HCV-RNA [3]; Other Genotype, 48 weeks treatment) was 31% (34/110) and the “Sustained Virologic Response” value (serum HCV-RNA [3]; Other genotype/>2 million copies/mL, 48 weeks treatment) was 31 % (19/61).
